Our source for the Ki values is ChEMBL document CHEMBL1146651, “Selective urokinase-type plasminogen activator (uPA) inhibitors. Part 3: 1-isoquinolinylguanidines” (Bioorg Med Chem Lett, 2004).

Structures are written as SMILES.

This assay has as its target Urokinase-type plasminogen activator (Homo sapiens, UniProt P00749).
As for `NC(N)=Nc1nccc2cc(Br)ccc12`, the Ki was determined as 2340 nM.
With `NC(N)=Nc1cc2ccccc2cn1`, the affinity, expressed as Ki, was 9300 nM.
For `COc1ccc(-c2ccc3c(Cl)cnc(N=C(N)N)c3c2)cc1`, the Ki was determined as 200 nM.
For the compound `Cc1cnc(N=C(N)N)c2ccccc12`, the Ki is 1400 nM.
In turn, `N=C(N)Nc1nccc2ccc(-c3ccc4c(c3)OCO4)cc12` registered an inhibition constant (Ki) of 340 nM.
Consider `N=C(N)Nc1nccc2ccc(C(=O)O)cc12`, for which the affinity corresponds to a Ki of 1000 nM.
For the compound `NC(N)=Nc1nccc2ccc(Br)cc12`, the Ki amounted to 800 nM.
Consider `N=C(N)Nc1ncc(Br)c2ccccc12`, for which the Ki amounted to 580 nM.
`NC(N)=Nc1nccc2c(OCc3ccccc3)cccc12` registered a Ki of 4800 nM.

Usually Ki stands for a dissociation constant, usually derived from enzyme kinetics or from competition with a known ligand.
